Measured values published in ChEMBL document CHEMBL2375274, “Exploration of the structure-activity relationship of a novel tetracyclic class of TSPO ligands-potential novel positron emitting tomography imaging agents” (Bioorg Med Chem Lett, 2013).

Amino acid sequences for entries named in this document (tags omitted).
UniProt P16257, whole entry, looked up: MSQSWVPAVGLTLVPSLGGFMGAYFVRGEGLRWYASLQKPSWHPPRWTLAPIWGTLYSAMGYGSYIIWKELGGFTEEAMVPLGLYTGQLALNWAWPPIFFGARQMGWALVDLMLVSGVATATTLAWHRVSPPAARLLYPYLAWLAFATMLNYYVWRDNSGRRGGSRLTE

Biological target: Translocator protein (Rattus norvegicus, UniProt P16257)
Assay: Displacement of [3H]PK11195 from PBR receptor in Wistar rat heart homogenates
Assay type: tissue-based
In short: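 Competition binding against [³H]PK11195 in homogenised rat heart tissue.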

Row | Ki [nM] | Structure (SMILES)
1 | 0.32 | CCN(CC)C(=O)C1Sc2cc(F)ccc2-c2c1c1ccccc1n2CCF (racemic)
2 | 0.31 | CCN(CC)C(=O)C1Sc2c(F)cccc2-c2c1c1ccccc1n2CCF (racemic)
